A melting point compilation (Tetko et al.)

Settings: a range is the spread between reports
`C1CNCCNCCCNCCNC1` showed a melting point of 185 to 186 °C.
In the case of `CC1CCC(C(C)C)CC1` (configuration not stated), the melting point is reported as -89.9 to -86.3 °C.
`OCCOCCOCCOCCO` showed a melting point of -6.2 to -4 °C.
Work on `CCCCOCCCC` yielded a melting point of -98 to -95 °C.
For `COc1ccc(CO)cc1`, the melting point was 24 to 26 °C.
Work on `c1ccc2cccc-2cc1` yielded a melting point of 99 to 100 °C.
Work on `CCl` yielded a melting point of -97.7 to -97 °C.
